Literature values in US20020146823A1, “Method for promoting hematopoietic and mesenchymal cell proliferation and differentiation” (The University of Southern California, priority 1997, published 2002).

Target: T1, AT2 receptor (Homo sapiens, UniProt P50052)
T1 sequence (P50052 1-363): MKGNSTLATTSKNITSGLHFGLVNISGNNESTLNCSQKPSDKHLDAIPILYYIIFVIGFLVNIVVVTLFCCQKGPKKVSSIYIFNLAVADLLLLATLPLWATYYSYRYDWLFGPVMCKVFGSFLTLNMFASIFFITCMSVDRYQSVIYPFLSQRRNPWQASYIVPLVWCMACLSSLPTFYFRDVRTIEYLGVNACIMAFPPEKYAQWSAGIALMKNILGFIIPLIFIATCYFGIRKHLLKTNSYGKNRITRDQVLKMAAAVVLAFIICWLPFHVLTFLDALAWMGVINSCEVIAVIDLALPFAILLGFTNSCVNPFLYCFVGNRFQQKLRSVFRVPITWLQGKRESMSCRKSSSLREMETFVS
Details: experimental models tested; cited from earlier work

Asp-Arg-Val-Tyr-Ile-Xaa-Pro-Phe [(p-NH2-Phe)6-AII, reference compound]
binding characteristics: comparable to AT2 antagonists
